Measured values as given in PubChem BioAssay AID602440 (Sanford-Burnham Center for Chemical Genomics, 2012).
The list shows a part of the results, in another mix than the full data. Calls of active or inactive are those of the source. Rule as the data show it: active = inhibition mostly above about 40% (no sharp cut-off); inactive = mostly below about 27%.

Sequences of proteins named here, by UniProt entry; tags and fusion partners are left off.
UniProt Q96LD8, whole entry: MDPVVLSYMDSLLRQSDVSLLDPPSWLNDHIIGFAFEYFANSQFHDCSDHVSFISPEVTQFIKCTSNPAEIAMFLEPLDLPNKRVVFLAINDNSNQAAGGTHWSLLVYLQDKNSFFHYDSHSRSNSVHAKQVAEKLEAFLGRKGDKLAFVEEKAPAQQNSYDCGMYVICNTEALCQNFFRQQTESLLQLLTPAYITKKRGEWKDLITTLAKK

Target: Sentrin-specific protease 8 (Homo sapiens) (UniProt Q96LD8)
Assay: human SENP8 protease inhibitors, primary screen, biochemical, fluorescence, Nedd8 protein substrate, uHTS (AID 602440)
Conditions: recombinant SENP8, Nedd8 substrate fluorescence; at 20 µM; stronger effect = higher value

Structure (SMILES)	inhibition
O=C(NCC1(N2CCOCC2)CCCCC1)c1cc2ccccc2o1	inactive: -18.2%
Cc1cc(C)cc(N(C(=O)c2ccccc2)C2CCN(C(=O)OC(C)(C)C)CC2)c1	inactive: 16.4%
O=c1[nH]c2ccccc2n1C1CCN(C(c2ccccc2OC(F)(F)F)c2nnnn2C2CCCCC2)CC1 (stereo not drawn)	inactive: 28.2%
O=C(NCC1(N2CCCCC2)CCCCC1)c1ccc(Cl)nc1	inactive: 11.1%
CCCCn1nnnc1C(c1ccc(OC)cc1)N1CCC(n2c(=O)[nH]c3ccccc32)CC1 (stereo not drawn)	inactive: 13.9%
CCOC(=O)N1CCC(Nc2ccc(OC)cc2)CC1	inactive: 21.5%
COc1ccc(Cl)cc1C(=O)NCC1(N2CCOCC2)CCCCC1	inactive: 0.6%
O=c1[nH]c2ccccc2n1C1CCN(C(c2cc3ccccc3o2)c2nnnn2C2CCCCC2)CC1 (stereo not drawn)	inactive: 14.4%
O=C(OC1CN2CCC1CC2)C1c2ccccc2Oc2ccccc21 (stereo not drawn)	inactive: -50.8%
N#CC1(Nc2ccccc2)CCN(Cc2ccccc2)CC1	inactive: 26.5%
O=C(NCC1(N2CCCCC2)CCCCC1)c1ccc(Cl)s1	inactive: 6.1%
CCCCn1nnnc1C(c1cccs1)N1CCC(n2c(=O)[nH]c3ccccc32)CC1 (stereo not drawn)	inactive: 12.6%
CCCCn1nnnc1C(CC)N1CCC(n2c(=O)[nH]c3ccccc32)CC1 (stereo not drawn)	inactive: 16%
O=C(NCC1(N2CCCCC2)CCCCC1)c1cccs1	inactive: 4%
O=C(NCC1(N2CCCCC2)CCCCC1)c1ccc(=O)[nH]c1	inactive: 14.6%
CCC(c1nnnn1C1CCCC1)N1CCC(n2c(=O)[nH]c3ccccc32)CC1 (stereo not drawn)	inactive: 11.3%
COc1ccc(C(=O)NCC2(N3CCCCC3)CCCCC2)c(OC)c1OC	inactive: 5.2%
CC(C)(C)OC(=O)N1CCC(N(C(=O)c2ccccc2)c2ccc(F)cc2)CC1	inactive: 9.7%
COc1ccc(C(=O)NCC2(N3CCCCC3)CCCCC2)cc1	inactive: 6.4%
Cc1cccc(NC2(C#N)CCN(Cc3ccccc3)CC2)c1	inactive: 10%
CSc1ccccc1C(=O)NCC1(N2CCCCC2)CCCCC1	inactive: 15.6%
O=c1[nH]c2ccccc2n1C1CCN(C(c2ccccc2)c2nnnn2C2CCCCC2)CC1 (stereo not drawn)	inactive: 9.8%

Structure (SMILES)	inhibition
O=c1[nH]c2ccccc2n1C1CCN(C(c2cccc3ccccc23)c2nnnn2C2CCCC2)CC1 (stereo not drawn)	inactive: 10%
COc1cc(C(=O)NCC2(N(C)C)CCCCC2)ccc1OC(F)F	inactive: 17.7%
CCOC(=O)N1CCC(Nc2cccc(C)c2)CC1	inactive: 0.9%
CCOc1ccc(C)cc1CN(CCCl)CCCl	inactive: 16.7%
O=C1CCN(Cc2ccccc2)CC1	inactive: 0.5%
CC(C)(C)n1nnnc1C(c1ccccc1)N1CCC(n2c(=O)[nH]c3ccccc32)CC1 (stereo not drawn)	inactive: 23.2%
CCOC(=O)N1CCC(Nc2ccc(F)cc2)CC1	inactive: 17.3%
COc1ccc(NC2CCN(CCc3ccccc3)CC2)c(OC)c1	inactive: 7.5%
O=C(NCC1(N2CCCCC2)CCCCC1)c1ccc(F)cc1	inactive: 4.1%
CCCCOc1ccc(C(=O)NCC2(N3CCOCC3)CCCCC2)cc1	inactive: -3.3%
O=P1(N(CCCl)CCCl)SCCCS1	inactive: 9.8%
CCCCn1nnnc1C(c1cc2ccccc2o1)N1CCC(n2c(=O)[nH]c3ccccc32)CC1 (stereo not drawn)	inactive: 31%
O=C(NCC1(N2CCCCC2)CCCCC1)c1cccc(C(F)(F)F)c1	inactive: 12.6%
CCCCn1nnnc1C(c1cccc2ccccc12)N1CCC(n2c(=O)[nH]c3ccccc32)CC1 (stereo not drawn)	inactive: 1.9%
COc1ccc(NC2CCN(C(=O)OC(C)(C)C)CC2)cc1	inactive: 13.1%
CC(C)c1ccc(C(=O)NCC2(N3CCOCC3)CCCCC2)cc1	inactive: 3%
CN1CCN(CCOC(=O)C(O)(c2ccccc2)c2ccccc2)CC1	inactive: 17.8%
O=C(NCC1(N2CCOCC2)CCCCC1)c1cc(=O)[nH]c2ccccc12	inactive: -53.9%
COc1cc(C(=O)NCC2(N3CCCCC3)CCCCC2)ccc1OC(F)F	inactive: 4%
O=C(NCC1(N2CCCCC2)CCCCC1)c1ccc(OC(F)F)cc1	inactive: -1.7%
CC(C)(C)n1nnnc1C(c1ccccc1OC(F)(F)F)N1CCC(n2c(=O)[nH]c3ccccc32)CC1 (stereo not drawn)	inactive: 2.2%
CSc1ccc(C(=O)NCC2(N3CCOCC3)CCCCC2)cc1	inactive: 0.8%

Structure (SMILES)	inhibition
O=C(NCC1(N2CCCCC2)CCCCC1)c1cccc([N+](=O)[O-])c1	inactive: 10.5%
N#CC1(Nc2ccccc2)CCN(CCc2ccccc2)CC1	inactive: 7.1%
O=c1[nH]c2ccccc2n1C1CCN(C(c2ccccc2OC(F)(F)F)c2nnnn2C2CCCC2)CC1 (stereo not drawn)	inactive: 8.6%
CCN1CCC(Nc2ccc(Cl)cc2)CC1	inactive: 5.3%
O=C(NCC1(N2CCCCC2)CCCCC1)c1cncc(Br)c1	inactive: 5.1%
CN1CCC(Nc2cccc(F)c2)CC1	inactive: 12.8%
CCCOc1ccc(C(=O)NCC2(N(C)C)CCCCC2)cc1OC	inactive: 7.6%
Cc1ccc(C(=O)NCC2(N(C)C)CCCCC2)o1	inactive: 22.3%
COc1ccc(C(c2nnnn2C2CCCC2)N2CCC(n3c(=O)[nH]c4ccccc43)CC2)cc1 (stereo not drawn)	inactive: 11.1%
CN(C)c1cccc(C(=O)NCC2(N3CCCCC3)CCCCC2)c1	inactive: -178%
COc1ccc(CN(CCCl)CCCl)cc1Cl	inactive: 7.1%
CC(C)c1ccc(NC2CCN(C(=O)OC(C)(C)C)CC2)cc1	inactive: 7.9%
CCCCn1nnnc1C(c1ccccc1OC(F)(F)F)N1CCC(n2c(=O)[nH]c3ccccc32)CC1 (stereo not drawn)	inactive: 11.6%
CCCCn1nnnc1C(c1ccnc2ccccc12)N1CCC(n2c(=O)[nH]c3ccccc32)CC1 (stereo not drawn)	inactive: 13.6%
CCC(c1nnnn1C(C)(C)C)N1CCC(n2c(=O)[nH]c3ccccc32)CC1 (stereo not drawn)	inactive: 15.4%
O=C(NCC1(N2CCOCC2)CCCCC1)c1cc(F)c(F)cc1Cl	inactive: 10%
COc1cc(OC)c(C(=O)NCC2(N(C)C)CCCCC2)cc1OC	inactive: 6.1%
N/C(=N\O)c1c(N)no[n+]1[O-]	inactive: 28.2%
COc1cccc(C(c2nnnn2C(C)(C)C)N2CCC(n3c(=O)[nH]c4ccccc43)CC2)c1OC (stereo not drawn)	inactive: 32%
CCOC(=O)N1CCC(Nc2ccc(C)cc2)CC1	inactive: 6.1%
CCCCn1nnnc1C(c1cccc(OC)c1OC)N1CCC(n2c(=O)[nH]c3ccccc32)CC1 (stereo not drawn)	inactive: 11.8%
O=c1[nH]c2ccccc2n1C1CCN(C(c2cccs2)c2nnnn2C2CCCC2)CC1 (stereo not drawn)	inactive: 14%

Structure (SMILES)	inhibition
O=C(OC1CN2CCC1CC2)C1c2ccccc2C=Cc2ccccc21 (stereo not drawn)	inactive: -1.1%
O=C(NCC1(N2CCOCC2)CCCCC1)c1cc(Br)ccc1Cl	inactive: 21%
COc1cc(C(=O)NCC2(N3CCOCC3)CCCCC2)cc(OC)c1C	inactive: 8.7%
CCCCn1nnnc1C(c1ccccc1)N1CCC(n2c(=O)[nH]c3ccccc32)CC1 (stereo not drawn)	inactive: 15.9%
O=c1[nH]c2ccccc2n1C1CCN(C(c2ccnc3ccccc23)c2nnnn2C2CCCC2)CC1 (stereo not drawn)	inactive: 18.2%
COc1ccc(C(=O)NCC2(N3CCOCC3)CCCCC2)cc1OC	inactive: 10.1%
O=c1[nH]c2ccccc2n1C1CCN(C(c2cccs2)c2nnnn2C2CCCCC2)CC1 (stereo not drawn)	inactive: 29.2%
CCCN1CCC(Nc2cc(OC)cc(OC)c2)CC1	inactive: 8.8%
O=c1[nH]c2ccccc2n1C1CCN(C(c2ccccc2)c2nnnn2C2CCCC2)CC1 (stereo not drawn)	inactive: 14.4%
Cc1cc(N(CCCl)CCCl)ccc1C=O	inactive: -32.7%
c1ccc(CN2CCC(Nc3ccccc3)CC2)cc1	inactive: 19.2%
CN(C)C1(CNC(=O)c2cccc(C#N)c2)CCCCC1	inactive: 18.7%
CC(C)(C)n1nnnc1C(c1cccc2ccccc12)N1CCC(n2c(=O)[nH]c3ccccc32)CC1 (stereo not drawn)	inactive: 21.1%
CC(C)(C)OC(=O)N1CCC(N(C(=O)c2ccccc2)c2ccc(Cl)cc2)CC1	inactive: 6.4%
N#Cc1ccc(C(=O)NCC2(N3CCCCC3)CCCCC2)cc1	inactive: 10.9%
CC(C)(C)n1nnnc1C(c1ccnc2ccccc12)N1CCC(n2c(=O)[nH]c3ccccc32)CC1 (stereo not drawn)	inactive: 17.3%
COc1ccc(C(c2nnnn2C2CCCCC2)N2CCC(n3c(=O)[nH]c4ccccc43)CC2)cc1 (stereo not drawn)	inactive: 15.9%
CCN1CCC(Nc2cccc(F)c2)CC1	inactive: 10.4%
Cc1ccccc1NC1(C#N)CCN(Cc2ccccc2)CC1	inactive: 8%
Cn1c(=O)[nH]cc(N(CCCl)CCCl)c1=O	inactive: 8.1%
CN(C)c1ccc(C(=O)NCC2(N3CCCCC3)CCCCC2)cc1	inactive: 2%
O=C(NCC1(N2CCCCC2)CCCCC1)c1ccco1	inactive: 15.3%

Structure (SMILES)	inhibition
O=c1[nH]c2ccccc2n1C1CCN(C(c2ccnc3ccccc23)c2nnnn2C2CCCCC2)CC1 (stereo not drawn)	inactive: 7%
COc1cc(OC)cc(C(=O)NCC2(N3CCCCC3)CCCCC2)c1	inactive: 6.3%
CCC(c1nnnn1C1CCCCC1)N1CCC(n2c(=O)[nH]c3ccccc32)CC1 (stereo not drawn)	inactive: 15.2%
CC(=O)N(c1ccccc1)C1CCNCC1	inactive: 9.4%
COc1cccc(C(c2nnnn2C2CCCCC2)N2CCC(n3c(=O)[nH]c4ccccc43)CC2)c1OC (stereo not drawn)	inactive: 16.9%
Cc1ccc(NC2(C#N)CCN(Cc3ccccc3)CC2)cc1	inactive: -0.3%
Fc1ccccc1NC1CCN(Cc2ccccc2)CC1	inactive: 28.3%
Cc1ccc(C(=O)NCC2(N3CCCCC3)CCCCC2)o1	inactive: 14.6%
CCC(CO)(C(=O)OC1CN2CCC1CC2)c1ccccc1 (stereo not drawn)	inactive: 22%
COc1cccc(C(=O)N(c2cc(C)cc(C)c2)C2CCN(C(=O)OC(C)(C)C)CC2)c1	inactive: 13.6%
COc1cccc(C(c2nnnn2C2CCCC2)N2CCC(n3c(=O)[nH]c4ccccc43)CC2)c1OC (stereo not drawn)	inactive: 7.8%
COc1cc(OC)cc(C(=O)NCC2(N3CCOCC3)CCCCC2)c1	inactive: 3.8%
CN1CCC(Nc2ccc(Cl)cc2)CC1	inactive: 10.6%
CN1CCC(Nc2ccc(F)c(Cl)c2)CC1	inactive: 17.7%
CCOc1ncccc1C(=O)NCC1(N2CCOCC2)CCCCC1	inactive: 7.4%
CCCOc1ccc(C(=O)NCC2(N(C)C)CCCCC2)cc1	inactive: 20.4%
O=c1[nH]c2ccccc2n1C1CCN(C(c2cc3ccccc3o2)c2nnnn2C2CCCC2)CC1 (stereo not drawn)	inactive: 16.5%
NN(c1ccccc1)C1CCN(CCc2ccccc2)CC1	inactive: 39%
O=C(O)C1(Nc2ccccc2)CCN(Cc2ccccc2)CC1	inactive: 10.5%
CC(C)(C)OC(=O)N1CCC(Nc2ccccc2)CC1	inactive: 17.7%
